From patent US10624947B2, “Bactericidal peptides and uses thereof” (INDIANA UNIVERSITY RESEARCH AND TECHNOLOGY CORPORATION, priority 2016, dated 2020)

Test system: Escherichia coli
Details: E. coli ATCC 25922

## CC[C@H](C)[C@H](NC(=O)[C@H](CCCNC(=N)N)NC(=O)[C@H](CS)NC(=O)[C@@H]1CCCN1C(=O)[C@H](Cc1ccc(O)cc1)NC(=O)[C@@H]1CCCN1C(=O)[C@@H](NC(=O)[C@H](CCC(N)=O)NC(=O)CNC(=O)[C@H](Cc1ccc(O)cc1)NC(=O)[C@H](CCC(=O)O)NC(=O)[C@H](CCCNC(=N)N)NC(=O)[C@H](Cc1c[nH]c2ccccc12)NC(=O)[C@H](C)NC(=O)[C@H](CCCCN)NC(=O)[C@H](Cc1c[nH]c2ccccc12)NC(=O)[C@@H](NC(=O)[C@H](CCCCN)NC(=O)[C@H](CCCNC(=N)N)NC(=O)CNC(=O)[C@@H](NC(=O)[C@H](CCCCN)NC(=O)CNC(=O)[C@@H](NC(=O)[C@H](CCCCN)NC(=O)[C@H](CCCNC(=N)N)NC(=O)CNC(=O)[C@H](CC(C)C)NC(=O)[C@H](CCCCN)NC(=O)[C@H](CCC(N)=O)NC(=O)[C@@H](NC(=O)[C@H](CCCNC(=N)N)NC(=O)[C@H](CCCCN)NC(=O)[C@H](CCCNC(=N)N)NC(=O)[C@@H](NC(=O)[C@H](CCCCN)NC(=O)[C@H](CCCNC(=N)N)NC(=O)[C@H](Cc1ccccc1)NC(=O)[C@H](CCCCN)NC(=O)[C@H](CCCCN)NC(=O)[C@H](CCCNC(=N)N)NC(=O)[C@H](CC(C)C)NC(=O)CN)[C@@H](C)O)[C@@H](C)CC)[C@@H](C)CC)[C@@H](C)O)C(C)C)[C@@H](C)CC)C(=O)O [CAP-11, reference compound]
  Minimal inhibitory concentration: 4 µg/mL (≈ 0.757 µM)

In brackets after ≈: the same amount, converted by molar mass.
